Reference: ChEMBL document CHEMBL5723379, “Affinity On-target Cellular Literature for EUbOPEN Chemogenomic Library” (2024)
Values belong to the molecule of their own block, whether it stands above or below them.

By UniProt entry, the sequences of proteins in these tests, tags left out.
UniProt Q15910, whole entry: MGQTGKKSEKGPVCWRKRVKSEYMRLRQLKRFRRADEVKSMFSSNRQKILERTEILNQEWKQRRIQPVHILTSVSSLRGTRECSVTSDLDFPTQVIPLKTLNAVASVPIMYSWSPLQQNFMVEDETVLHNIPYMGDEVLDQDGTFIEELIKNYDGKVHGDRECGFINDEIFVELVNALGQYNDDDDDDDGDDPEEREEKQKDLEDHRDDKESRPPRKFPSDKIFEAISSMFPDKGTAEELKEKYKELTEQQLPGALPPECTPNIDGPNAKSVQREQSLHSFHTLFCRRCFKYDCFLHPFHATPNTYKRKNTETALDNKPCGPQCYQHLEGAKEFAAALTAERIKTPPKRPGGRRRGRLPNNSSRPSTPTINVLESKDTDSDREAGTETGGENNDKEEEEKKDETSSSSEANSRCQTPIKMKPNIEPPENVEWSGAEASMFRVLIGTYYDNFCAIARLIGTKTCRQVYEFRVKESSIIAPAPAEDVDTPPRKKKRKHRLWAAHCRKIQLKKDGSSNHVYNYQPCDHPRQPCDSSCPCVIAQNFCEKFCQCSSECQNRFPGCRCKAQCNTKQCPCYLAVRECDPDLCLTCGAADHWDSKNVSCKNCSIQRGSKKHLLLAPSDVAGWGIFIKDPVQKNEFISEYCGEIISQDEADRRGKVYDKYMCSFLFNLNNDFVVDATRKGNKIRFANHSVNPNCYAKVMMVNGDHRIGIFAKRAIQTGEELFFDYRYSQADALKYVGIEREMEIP
UniProt P31645, whole entry: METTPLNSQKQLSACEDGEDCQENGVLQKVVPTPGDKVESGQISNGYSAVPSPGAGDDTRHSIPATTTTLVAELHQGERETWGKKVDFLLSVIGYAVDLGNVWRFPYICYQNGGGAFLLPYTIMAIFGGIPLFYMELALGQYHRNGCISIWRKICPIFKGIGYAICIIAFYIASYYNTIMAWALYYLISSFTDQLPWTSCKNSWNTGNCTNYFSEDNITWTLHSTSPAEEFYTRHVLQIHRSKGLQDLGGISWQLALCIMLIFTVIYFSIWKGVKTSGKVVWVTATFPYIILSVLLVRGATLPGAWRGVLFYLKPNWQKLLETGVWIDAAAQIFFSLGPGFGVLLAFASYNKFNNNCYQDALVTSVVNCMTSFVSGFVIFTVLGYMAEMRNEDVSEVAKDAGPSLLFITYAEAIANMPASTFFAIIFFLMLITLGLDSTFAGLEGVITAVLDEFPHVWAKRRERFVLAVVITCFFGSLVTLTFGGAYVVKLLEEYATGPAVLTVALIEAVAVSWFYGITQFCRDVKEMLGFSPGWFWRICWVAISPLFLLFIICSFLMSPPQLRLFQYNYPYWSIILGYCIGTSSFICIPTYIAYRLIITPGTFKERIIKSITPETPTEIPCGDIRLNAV

What was measured:
[1] = biological target: Histone-lysine N-methyltransferase EZH2 (Homo sapiens, UniProt Q15910); experiment: Affinity On-target Cellular interaction: (Protein substrate methylation in WSU-DLCL2 cells) EUB0002228a EZH2; format: functional, cell-based, WSUDLCL2
Caspase-6 = biological target: T1, Caspase-6 (Homo sapiens, UniProt P55212)
T1 sequence (P55212 whole entry): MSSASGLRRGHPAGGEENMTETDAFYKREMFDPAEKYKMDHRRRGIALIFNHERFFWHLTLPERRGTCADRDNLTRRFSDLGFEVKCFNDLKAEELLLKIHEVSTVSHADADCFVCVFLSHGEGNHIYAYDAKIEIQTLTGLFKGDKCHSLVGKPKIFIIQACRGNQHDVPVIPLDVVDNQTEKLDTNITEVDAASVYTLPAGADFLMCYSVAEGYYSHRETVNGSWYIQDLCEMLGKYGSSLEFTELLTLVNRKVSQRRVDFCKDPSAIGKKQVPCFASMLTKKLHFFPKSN

[2] = biological target: Sodium-dependent serotonin transporter (Homo sapiens, UniProt P31645); experiment: Affinity On-target Cellular interaction: (Inhibition of neurotransmitter uptake, [3H]5-HT, MDCK-hNWET6 cells) EUB0002556aCl SLC6A4; format: functional, cell-based
[3] = biological target: T2, Nuclear receptor subfamily 1 group D member 1 (Homo sapiens, UniProt P20393)
T2 sequence (P20393 whole entry): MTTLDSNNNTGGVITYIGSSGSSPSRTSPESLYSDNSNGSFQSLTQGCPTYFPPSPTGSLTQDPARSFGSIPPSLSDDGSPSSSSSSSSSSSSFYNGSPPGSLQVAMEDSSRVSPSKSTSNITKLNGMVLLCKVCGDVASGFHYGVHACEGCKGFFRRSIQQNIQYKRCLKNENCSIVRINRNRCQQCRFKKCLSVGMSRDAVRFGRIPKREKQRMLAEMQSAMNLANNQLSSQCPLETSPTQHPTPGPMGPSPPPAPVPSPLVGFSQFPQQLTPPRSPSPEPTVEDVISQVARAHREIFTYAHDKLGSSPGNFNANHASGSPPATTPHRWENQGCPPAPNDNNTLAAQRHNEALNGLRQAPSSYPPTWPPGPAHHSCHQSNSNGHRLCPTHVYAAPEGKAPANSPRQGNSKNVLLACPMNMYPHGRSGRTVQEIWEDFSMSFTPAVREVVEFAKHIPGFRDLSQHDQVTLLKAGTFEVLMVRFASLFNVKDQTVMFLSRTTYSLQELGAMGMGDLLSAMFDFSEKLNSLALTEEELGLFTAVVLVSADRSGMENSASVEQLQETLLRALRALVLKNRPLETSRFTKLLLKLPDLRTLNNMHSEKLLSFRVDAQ

IC50 [1]: < 0.1 µM
SMILES: CCN(c1cc(C#CCN2CCOCC2)cc(C(=O)NCc2c(C)cc(C)[nH]c2=O)c1C)[C@H]1CC[C@H](N(C)CCOC)CC1

IC50 (Caspase-6): 0.49 µM
SMILES: CC[C@H](C)[C@H](NC(=O)[C@H](CCC(=O)O)NC(=O)[C@@H](NC(C)=O)C(C)C)C(=O)N[C@H](C=O)CC(=O)O

IC50 [2]: 0.0473 µM
SMILES: CN(C)CC(c1ccc(O)cc1)C1(O)CCCCC1 (centres undefined)

EC50 [3]: 6 µM
SMILES: CCOC(=O)N1CCC(CN(Cc2ccc(Cl)cc2)Cc2ccc([N+](=O)[O-])s2)C1 (centres undefined) [SR9009]
